Results: publication PMC4834588 (British Journal of Clinical Pharmacology, 2016)

Experiment: Log P by HPLC retention on C18 column
Details: from standard curve of Log k vs known Log P
Description: The method for the generation of Log P values by high performance liquid chromatography (HPLC) was adapted from that described by Zhao et al. 22. Briefly, Log P correlates with the retention time of a compound by a solid phase C18 column. […] By using compounds with known Log P values, a standard curve can be determined and the Log P of a compound of interest obtained by interpolation. A Waters HPLC system, linked to an Agilent fluorescence detector, was used along with a Luna 5 μ C18 50 × 2.0 mm HPLC column preceded by a guard column (Phenomenex, Macclesfield, UK). […] The sample holder for the HPLC was set at 25 °C in order to prevent freezing of the DMSO during the run. The mobile phase consisted of deionized water and acetonitrile with a constant gradient of 40–60%, respectively.
Prior to each run the column was equilibrated to the running conditions for 10 minutes, with the flow rate set to 0.5 ml min^−1. A 20‐μl aliquot of each sample was injected into the column and its retention time measured relative to that of the sodium nitrate peak. Peaks were analysed using Empower software (Waters, Wilmslow, UK).

Oc1ccccc1 [Phenol]
Experimental Log P: 1.49
